The values below are quoted from earlier work in patent publication US5714499A, “3-amino-2-oxo-1-piperidineacetic derivatives containing an arginine mimic as enzyme inhibitors” (Corvas International, Inc., priority 1994, dated 1998).

The term Ki denotes the equilibrium dissociation constant of an inhibitor or competing ligand from its target.

The target in the data set is human alpha-thrombin. The following applies: Table 4, human alpha-thrombin; literature; cited from earlier work.

`CC1CNc2c(cccc2S(=O)(=O)N[C@@H](CCCNC(=N)N)C(=O)N2CC[C@@H](C)C[C@@H]2C(=O)O)C1` (stereo partly drawn) [Argatroban, 2R,4R-4-methyl-1-[N-2-(3-methyl-1,2,3,4-tetrahydro-8-quinolinesulfonyl)-L-argininal]-2-piperdinecarboxylic acid, reference compound]: the Ki was 19 nM.
